Consider 1 compound from the supplement of paper PMC7366291.

Holding throughout (conditions): 25 µM; exposure: 24-48 hpf
For experiment [1], the system named is Danio rerio Tg(wt1b:EGFP) embryo, pronephros. Briefly: fraction of imaged embryos annotated as normal kidney; higher = less nephrotoxic. The gist of the method: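 The read-out is the proportion of embryos in each treatment manually annotated as normal-kidney. Exposure ran from 24 to 48 hpf at 28.5°C in 12-well plates, using dechorionated Tg(wt1b:EGFP) zebrafish embryos in 5 mM HEPES-buffered E3 with 0.003% PTU, 0.5% DMSO and 25 μM compound. For imaging, larvae were anaesthetised with tricaine, positioned dorsally in agarose-filled 96-well plates and captured by widefield fluorescence (470 nm, 10 z-slices), with scoring done on maximum projections.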

Experiment [2] has the same test system. Description: glomerular separation, fold change vs DMSO control; higher = glomeruli further apart (abnormal). The procedure, abridged: (§1)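 Dechorionated Tg(wt1b:EGFP) zebrafish embryos were kept from 24 to 48 hpf at 28.5°C in HEPES-buffered E3 containing 0.003% PTU, 0.5% DMSO and 25 μM compound. The pronephroi were then imaged from the dorsal side in agarose-filled 96-well plates at 470 nm with 10 z-slices, and 16 reference points were placed by hand on maximum projections in Fiji so that a macro could calculate distances and angles. Values lying more than 2 SD from the mean of a feature were discarded. Every feature is given as a fold change against the mean of DMSO-treated embryos from the same day.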

For experiment [3] the test system is unchanged. Description: glomerular width (mean of left and right), fold change vs DMSO control; higher = wider glomerulus. The procedure, abridged: as §1
The test system is the same in experiment [4]. Briefly: pronephric angle neck segment to proximal convoluted tubule (mean of left and right), fold change vs DMSO control; higher = larger pronephric angle. The procedure, abridged: as §1

The structures appear in SMILES notation. ± gives the standard deviation or the standard deviation of the averaged measurements. Most of the lowest values are listed elsewhere, so they are rarer here than in the full data.

In the case of `COc1cc(Br)c(C[N+]2(CCOCCC3CCC4CC3C4(C)C)CCOCC2)cc1OC` (centres undefined) [Pinaverium bromide], in experiment [1], the “fraction of imaged embryos annotated as normal kidney” value turned out to be 0.75. For the same compound, the glomerular separation in experiment [2] stood at 1.07 ± 0.65. Also, the glomerular width in experiment [3] was 1.052 ± 0.009. Also, in experiment [4], the “pronephric angle neck segment” value turned out to be 1.003 ± 0.0023.
